Test results: patent publication US8394821B2, “Activated blood coagulation factor inhibitor” (Daiichi Sankyo Company, Limited, priority 2009, dated 2013)

Key:
[1] = Evaluation of solubility (37° C., 30 min, HPLC); format: physicochemical
Protocol: A supersaturated amount of each sample was placed in a 12-mL test tube, and 3 mL of a test solution (water, Japanese Pharmacopoeia disintegration test solution No. 1 (JP1), and Japanese Pharmacopoeia disintegration test solution No. 2 (JP2)) was added thereto. The test tube was incubated in a constant-temperature water bath at 37° C. The test tube was shaken using a vortex mixer for 30 seconds every 5 minutes. 30 minutes later, the supernatant was filtered through a membrane filter (pore size: 0.45 μm), appropriately diluted with eluent, and then analyzed by HPLC under the following conditions. The concentration was calculated from a calibration curve prepared before measurement.
Measurement conditions of HPLC (column: Waters Symmetry C18 4.6 mm×150 mm, eluent: 0.05 M phosphate buffer (pH 5.0): acetonitrile=70:30, flow rate: 1 mL/min., detection: UV 220 nm, column temperature: 40° C.)

[2] = Moisture absorption and desorption characteristics (microbalance, water vapor adsorption apparatus); format: physicochemical; conditions: 25° C., 40% to 60% RH
Protocol: Various samples prepared in Example 1 were separately placed in quartz holders and measured for their moisture absorption and desorption behavior under the following conditions using a microbalance.
Moisture absorption and desorption behavior measurement conditions (sample volume: approximately 20 mg, measurement range: 10-90% RH, measurement temperature: 25° C., variable: within 0.03%, varying length of time: 10 min., apparatus: VTI atmospheric pressure-type automatic water vapor adsorption apparatus SGA-100)

JP1 (Solubility (μg/mL)) ([1]; Japanese Pharmacopoeia disintegration test solution No. 1, 37° C., 30 minutes): >2000 µg/mL
JP2 (Solubility (μg/mL)) ([1]; Japanese Pharmacopoeia disintegration test solution No. 2, 37° C., 30 minutes): 138 µg/mL
Water (Solubility (μg/mL)) ([1]; water, 37° C., 30 minutes): >2000 µg/mL
weight change at 40% to 60% relative humidity [2]: ≤ 1%
Structure (SMILES): CN1CCc2nc(C(=O)N[C@@H]3C[C@@H](C(=O)N(C)C)CC[C@@H]3NC(=O)C(=O)Nc3ccc(Cl)cn3)sc2C1.O.O=C(O)C(O)C(O)C(=O)O [compound II, N^1-(5-chloropyridin-2-yl)-N^2-((1S,2R,4S)-4-[(dimethylamino)carbonyl]-2-{[(5-methyl-4,5,6,7-tetrahydrothiazolo[5,4-c]pyridin-2-yl)carbonyl]amino}cyclohexyl)ethanediamide(+)-tartrate monohydrate]
solubility in water (in words) ([1]; crystals, compared with compound A): highly soluble in water compared with compound A
